Source: ChEMBL document CHEMBL6096665 (Eur J Med Chem, 2025)

Legend:
Type in all cases: functional, organism-based
Conditions in all cases: time 5.0 day
[1] = target: T1, Bile acid receptor (Mus musculus) (UniProt Q60641); experiment: In vivo activation of FXR in male ICR mouse assessed as upregulation of SHP mRNA expression in liver at 10 mg/kg, po administered via oral gavage for 5 days by RT-PCR analysis
T1 sequence (whole entry): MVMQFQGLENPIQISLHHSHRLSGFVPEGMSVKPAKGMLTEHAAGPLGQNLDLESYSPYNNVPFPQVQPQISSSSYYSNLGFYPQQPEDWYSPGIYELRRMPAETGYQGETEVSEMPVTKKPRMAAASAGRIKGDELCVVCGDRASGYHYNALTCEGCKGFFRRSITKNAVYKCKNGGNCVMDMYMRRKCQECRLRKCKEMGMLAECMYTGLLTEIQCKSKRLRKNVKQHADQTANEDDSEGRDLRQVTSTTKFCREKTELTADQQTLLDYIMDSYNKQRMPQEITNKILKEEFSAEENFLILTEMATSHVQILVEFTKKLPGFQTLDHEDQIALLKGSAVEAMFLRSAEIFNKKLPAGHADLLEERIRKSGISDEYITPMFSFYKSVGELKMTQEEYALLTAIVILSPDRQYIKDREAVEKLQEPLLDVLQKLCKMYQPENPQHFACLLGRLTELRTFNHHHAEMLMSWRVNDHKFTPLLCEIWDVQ

[2] = target: T1, Bile acid receptor (Mus musculus); experiment: In vivo activation of FXR in male ICR mouse assessed as upregulation of FXR mRNA expression in liver at 10 mg/kg, po administered via oral gavage for 5 days by RT-PCR analysis
[3] = target: T1, Bile acid receptor (Mus musculus); experiment: In vivo activation of FXR in male ICR mouse assessed as upregulation of BSEP mRNA expression in liver at 10 mg/kg, po administered via oral gavage for 5 days by RT-PCR analysis
[4] = target: T1, Bile acid receptor (Mus musculus); experiment: In vivo activation of FXR in male ICR mouse assessed as upregulation of OSTbeta mRNA expression in liver at 10 mg/kg, po administered via oral gavage for 5 days by RT-PCR analysis
[5] = target: T1, Bile acid receptor (Mus musculus); experiment: In vivo activation of FXR in male ICR mouse assessed as upregulation of FXR mRNA expression in ileum at 10 mg/kg, po administered via oral gavage for 5 days by RT-PCR analysis
[6] = target: T1, Bile acid receptor (Mus musculus); experiment: In vivo activation of FXR in male ICR mouse assessed as upregulation of FGF15 mRNA expression in ileum at 10 mg/kg, po administered via oral gavage for 5 days by RT-PCR analysis
[7] = target: T1, Bile acid receptor (Mus musculus); experiment: In vivo activation of FXR in male ICR mouse assessed as upregulation of SHP mRNA expression in ileum at 10 mg/kg, po administered via oral gavage for 5 days by RT-PCR analysis
[8] = target: T1, Bile acid receptor (Mus musculus); experiment: In vivo activation of FXR in male ICR mouse assessed as upregulation of OSTbeta mRNA expression in ileum at 10 mg/kg, po administered via oral gavage for 5 days by RT-PCR analysis

Measured: Activity

CC(C)c1onc(-c2ccccc2OC(F)(F)F)c1CN1CCC(COc2ccc(C(=O)O)cc2)CC1
active: [1] | [2] | [3] | [4] | [5] | [6] | [7] | [8]

Calls of active or inactive are those of the source.
